Measurements taken from PubChem BioAssay AID567 (The Scripps Research Institute Molecular Screening Center, 2006).
The list shows a part of the results, in another mix than the full data. Activity calls are given as the source filed them.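 The calls were made as follows: active = activation above the screen-wide mean activation plus 3 SD (cut at about 19% in these data); inactive = the rest.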

Chains of the proteins cited; added tags and fusions are not shown.
UniProt P08908, whole entry: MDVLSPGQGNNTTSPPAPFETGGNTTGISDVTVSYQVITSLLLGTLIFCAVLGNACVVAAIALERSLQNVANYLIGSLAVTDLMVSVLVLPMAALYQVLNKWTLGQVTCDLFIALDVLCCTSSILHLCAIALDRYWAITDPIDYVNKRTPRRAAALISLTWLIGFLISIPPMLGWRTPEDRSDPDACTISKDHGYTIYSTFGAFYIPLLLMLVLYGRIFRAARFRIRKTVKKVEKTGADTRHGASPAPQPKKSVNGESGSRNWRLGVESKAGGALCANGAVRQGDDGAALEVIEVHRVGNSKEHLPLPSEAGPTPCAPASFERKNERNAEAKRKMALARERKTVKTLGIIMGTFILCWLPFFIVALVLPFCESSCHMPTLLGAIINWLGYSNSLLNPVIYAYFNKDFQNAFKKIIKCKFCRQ

Biological target: 5-hydroxytryptamine receptor 1A (Homo sapiens) (UniProt P08908)
Test: agonism at serotonin HTR1A receptor – cell-based, CHO, Ga15 NFAT-bla reporter, primary screen (AID 567);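 also: 0% = DMSO wells and 100% = 5-CT at EC100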
Details: CHO 5-HT1a Ga15 NFAT-bla reporter, FRET ratio; at 10 µM; hits give high values; 0% basal, 100% maximal reference agonist

Row | Compound | activation
1 | CN(C)CCOC(=O)C(O)(c1ccccc1)C1CCCCC1 (stereo not drawn) | inactive: -4.57%
2 | CCOP(C)(=S)SCC(=O)NC(C)(CC)C(=O)O (stereo not drawn) | inactive: -2.26%
3 | Cc1ccccc1NP(C)(=O)Nc1ccccc1C | inactive: -4.48%
4 | CP(=O)(Nc1ccc2c(c1)OCCO2)Oc1ccccc1 (stereo not drawn) | inactive: -0.41%
5 | CP(=O)(Nc1ccccc1F)Oc1ccccc1 (stereo not drawn) | inactive: -0.43%
6 | COc1ccccc1OP(C)(=O)Nc1ccc(C)c(C)c1 (stereo not drawn) | inactive: -0.9%
7 | Cc1nc2ccc3ccccc3c2o1.O=[N+]([O-])c1cc([N+](=O)[O-])c(O)c([N+](=O)[O-])c1 | inactive: -3.21%
8 | CP(=O)(Nc1ccccn1)Oc1ccccc1 (stereo not drawn) | inactive: -3.2%
9 | CP(=O)(Oc1ccccc1)N1CCOC1=O (stereo not drawn) | inactive: -0.6%
10 | COc1ccccc1OP(C)(=O)Nc1c(C)n(C)n(-c2ccccc2)c1=O (stereo not drawn) | inactive: 1.59%
11 | CCN(CC)CC(O)COC(=O)C(O)(c1ccccc1)C1CCCCC1 (stereo not drawn) | inactive: 1.99%
12 | CP(=S)(Nn1cnnc1)Oc1ccccc1 (stereo not drawn) | inactive: -1.61%
13 | CP(=O)(NC(=O)Nc1ccccc1)Oc1ccccc1 (stereo not drawn) | inactive: -0.22%
14 | CCOP(C)(=S)SCC(=O)NC(C)C(=O)O (stereo not drawn) | inactive: -2.14%
15 | COc1ccccc1OP(C)(=O)Nc1ccc(C)cc1 (stereo not drawn) | inactive: -2.81%
16 | Cc1ccc(NP(C)(=O)Oc2ccccc2)c(C)c1 (stereo not drawn) | inactive: -1.84%
17 | Cc1ccc(C)c(NP(C)(=O)Oc2ccccc2)c1 (stereo not drawn) | inactive: 0.58%
18 | Cc1nc2ccc3ccccc3c2s1.O=[N+]([O-])c1cc([N+](=O)[O-])c(O)c([N+](=O)[O-])c1 | inactive: -0.92%
